The results in this text go back to PubChem BioAssay AID750 (Sanford-Burnham Center for Chemical Genomics, 2007).

Only a part is listed here, and it is no random draw. Activity calls are given as the source filed them.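 How the source made its calls: active means activation factor of at least 2 for MT1-MMP transcription at 10 µM; inactive means the rest.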

The test in a line: MT1-MMP promoter reporter activation – cell-based, luciferase luminescence, primary screen (AID 750). Conditions: HT1080 MT1-MMP promoter luciferase reporter, overnight, at 10 µM, hits give high values.
As for `CC1(CBr)Cn2c(nc3ccccc3c2=O)S1` (configuration not stated), the activation factor is inactive: 1.1. For the molecule `O=P1(Nc2ccccn2)COc2ccccc2OC1`, the activation factor is inactive: 1.2.

Consider `Clc1n[nH]nc1-c1nn[nH][15n]1`, for which the activation factor was inactive: 1.1.

As to `O=P1(Nc2ncccn2)COc2ccccc2OC1`, the activation factor was inactive: 1.3. With `Cc1ccc(OCC(=O)OC2CN3CCC2CC3)cc1` (configuration not stated), the activation factor was inactive: 1.3. To `O=P1(Nc2ccc(Br)cn2)COc2ccccc2OC1` belongs inactive: 1.3.

Consider `Cc1nn(-c2ccccc2)c2c1P(=O)(N1CCOCC1)N(C)C(c1ccccc1)=N2` (configuration not stated), for which the activation factor was inactive: 1. Consider `CCOP1(=S)c2c(C)nn(CCC#N)c2N=C(c2ccc(F)cc2)N1C` (configuration not stated), for which the activation factor is inactive: 1.4. In the case of `CCOP1(=S)c2c(C)nn(CCC#N)c2N=C(c2ccccc2F)N1C` (configuration not stated), the activation factor was inactive: 1. Regarding `O=P(Nc1nccs1)(c1ccccc1)c1nc2ccccc2s1` (configuration not stated), the activation factor is inactive: 1.2. On to `Cc1cccc(OCC(=O)OC2CN3CCC2CC3)c1` (configuration not stated), for which the activation factor was inactive: 1. As for `O=C(OC1CN2CCC1CC2)C12CC3CC(CC(C3)C1)C2` (configuration not stated), the activation factor is inactive: 1.2.

Turning to `ClCCSc1nnc(-c2cccnc2)o1`, the activation factor was inactive: 1.4. As for `CCC(C)N(CC(C)C)C(=S)SC(NC(C)=O)C(Cl)(Cl)Cl` (configuration not stated), the activation factor was inactive: 1.2. To `COP1(=S)c2c(C)nn(CCC#N)c2N=C(c2ccc(F)cc2)N1C` (configuration not stated) belongs inactive: 1.1. Turning to `O=C(COc1ccccc1)OC1CN2CCC1CC2` (configuration not stated), the activation factor is inactive: 1. On to `CC1CCN(C(=O)Oc2c(Cl)cc(Cl)c3cccnc23)CC1`, for which the activation factor was inactive: 1.4. Regarding `O=[N+]([O-])c1cccc2n[nH]nc12`, the activation factor is inactive: 1.3.

With `CCc1nc2c(n1)c1c(non1O)c1c2no[n+]1[O-]`, the activation factor is inactive: 0.1.

As for `CCOP(=O)(Nc1ccccc1)OCC`, the activation factor was inactive: 1.1. As for `Oc1ccccc1CNc1ccccn1`, the figure is inactive: 1.3; as for `Cc1c2non([O-])c-2c(C)[n+](=O)[n+]1[O-]`, inactive: 1.3; as for `O=P1(Nc2nc3ccc(Cl)cc3s2)COc2ccccc2O1` (configuration not stated), inactive: 1.3.

In the case of `COC(=O)c1cc2c(s1)N=C(c1ccccc1)N(C)P2(=O)N1CCOCC1` (configuration not stated), the activation factor is inactive: 1.1.

For the molecule `O=C(OC1CN2CCC1CC2)c1cccc(Cl)c1` (configuration not stated), the activation factor was inactive: 0.9. As to `O=P(Nc1nccs1)(c1ccccc1)c1ccccc1`, the activation factor is inactive: 1.1. As to `c1nnnn1CCn1cnnn1`, the activation factor is inactive: 1.1.
